The test deals with recombinant human AChE (Homo sapiens, UniProt P22303). The test is classed as biochemical. The note with it: read-out: AChE, IC50.

The chains behind the UniProt entries cited, without tags or fusion partners. Residues count along the entry.
UniProt P22303, 32-614: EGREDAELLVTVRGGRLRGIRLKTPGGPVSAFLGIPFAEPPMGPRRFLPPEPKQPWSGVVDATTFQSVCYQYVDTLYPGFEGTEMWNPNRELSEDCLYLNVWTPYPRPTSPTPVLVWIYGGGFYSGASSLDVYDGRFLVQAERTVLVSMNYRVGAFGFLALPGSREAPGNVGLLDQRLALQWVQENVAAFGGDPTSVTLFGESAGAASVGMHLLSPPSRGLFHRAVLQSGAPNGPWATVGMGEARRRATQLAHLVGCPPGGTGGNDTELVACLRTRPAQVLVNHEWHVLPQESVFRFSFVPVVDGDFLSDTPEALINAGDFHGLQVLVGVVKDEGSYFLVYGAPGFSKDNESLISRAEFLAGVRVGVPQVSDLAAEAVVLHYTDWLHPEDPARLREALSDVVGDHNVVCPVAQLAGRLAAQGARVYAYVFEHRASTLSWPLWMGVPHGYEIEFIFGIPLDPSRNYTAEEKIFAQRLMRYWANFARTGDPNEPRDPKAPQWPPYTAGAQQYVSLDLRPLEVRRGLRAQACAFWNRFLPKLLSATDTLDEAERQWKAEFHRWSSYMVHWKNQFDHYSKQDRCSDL

In the case of Diethylumbelliferyl phosphate, the IC50 (commonly the midpoint of a concentration-inhibition curve) came to 420 nM.

The values are drawn from publication PMC8637366 (Slas Discovery, 2021).
